Measurements from US20240058417A1, “AMELIORATION AND TREATMENT OF INFARCTION DAMAGE” (priority 2021, published 2024).

System: DOX-induced cardiotoxicity
Assay: DOX treatment in vivo (cardiotoxicity, 42 days)
Settings: T1 (16 days) and T2 (42 days)

COc1cccc2c1C(=O)c1c(O)c3c(c(O)c1C2=O)C[C@@](O)(C(=O)CO)C[C@@H]3O[C@H]1C[C@H](N)[C@H](O)[C@H](C)O1 [DOX, Doxorubicin]
negatively impaired: ejection fraction (EF %) | fractional shortening (FS %) | isovolumetric relaxation time (IVRT)
